Measured values taken from PMC7703681 (Journal of medicinal chemistry, 2020).

Test system: ventral prostate (VP) and seminal vesicle (SV) weights
Settings: rat, in vivo, po, 20 mg/kg

C[C@](O)(Cn1cc(F)cn1)C(=O)Nc1cnc(C#N)c(C(F)(F)F)c1 [21a, (S)-N-(6-Cyano-5-(trifluoromethyl)pyridin-3-yl)-3-(4-fluoro-1H-pyrazol-1-yl)-2-hydroxy-2-methylpropanamide]
reduction of SV weight: 45–50%
reduction of VP weight: approximately 35%
